# Data: US20140094465A1, “Compounds as S-Nitrosoglutathione Reductase Inhibitors” (N30 PHARMACEUTICALS, INC., priority 2011, published 2014)
# Amino acid sequences for entries named in this document (tags omitted).
# UniProt P11766, whole entry: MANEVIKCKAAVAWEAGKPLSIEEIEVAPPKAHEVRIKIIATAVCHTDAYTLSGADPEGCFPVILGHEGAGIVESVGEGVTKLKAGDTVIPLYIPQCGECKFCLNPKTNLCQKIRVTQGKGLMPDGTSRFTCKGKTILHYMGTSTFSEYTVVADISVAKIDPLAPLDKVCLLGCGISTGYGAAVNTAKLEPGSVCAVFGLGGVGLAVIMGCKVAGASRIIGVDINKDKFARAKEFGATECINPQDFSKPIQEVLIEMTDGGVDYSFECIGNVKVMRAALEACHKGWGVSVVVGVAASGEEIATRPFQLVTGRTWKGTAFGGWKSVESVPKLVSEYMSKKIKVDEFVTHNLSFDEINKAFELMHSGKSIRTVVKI
# Molecular target: S-nitrosoglutathione reductase (GSNOR) (Homo sapiens, UniProt P11766)
# Assay: GSNOR assay (inhibition of GSNOR activity, NADH absorbance at 340 nm)
# Assay type: biochemical
# Conditions: read-out: IC50 range; GSNOR inhibitor activity, Tables 1-6
row,Compound,IC50
1,O=C(O)c1ccc(-c2ccc3cc(O)ccc3c2Br)cc1,< 100 nM
2,O=C(O)c1ccc(-c2cnc3cc(O)ccc3n2)cc1,< 100 nM
3,CCC(F)(F)c1oc2cc(O)ccc2c(=O)c1-c1ccc(C(=O)O)cc1,100 to 1000 nM
4,CSc1oc2cc(O)ccc2c(=O)c1-c1ccc(C(=O)O)cc1,100 to 1000 nM
5,O=C(O)c1ccc(-c2c(Cc3ccccc3)oc3cc(O)ccc3c2=O)cc1,100 to 1000 nM
6,O=C(O)c1ccc(-c2nnc3cc(O)ccc3n2)cc1,100 to 1000 nM
7,O=C(O)c1ccc(-c2c(C(F)(F)F)oc3cc(O)c(Cl)cc3c2=O)cc1,1000 to 10000 nM
8,O=C(O)c1ccc(-c2coc3cc(O)ccc3c2=O)cc1,100 to 1000 nM
9,O=C(O)c1ccc(-c2c(-c3ccsc3)oc3cc(O)ccc3c2=O)cc1,1000 to 10000 nM
10,O=C(O)c1ccc(-c2c(C(F)F)oc3cc(O)ccc3c2=O)cc1,< 100 nM
11,N#Cc1cc2c(=O)c(-c3ccc(C(=O)O)cc3)c(C(F)(F)F)oc2cc1O,1000 to 10000 nM
12,CC(C)c1oc2cc(O)ccc2c(=O)c1-c1ccc(C(=O)O)cc1,100 to 1000 nM
13,N#Cc1c(-c2ccc(C(=O)O)cc2)ccc2cc(O)ccc12,< 100 nM
14,O=C(O)c1ccc(-c2nc3cc(O)ccc3nc2C(F)(F)F)cc1,100 to 1000 nM
15,O=C(O)c1ccc(-c2nc3ccc(O)cc3cc2C(F)(F)F)cc1,< 100 nM
16,O=C(O)c1ccc(Cc2sc3cc(O)ccc3c(=O)c2-c2ccc(C(=O)O)cc2)cc1,100 to 1000 nM
17,O=C(O)c1ccc(-c2ccc3cc(O)ccc3[n+]2[O-])cc1,100 to 1000 nM
18,COc1cc2c(=O)c(-c3ccc(C(=O)O)cc3)c(C(F)(F)F)oc2cc1O,100 to 1000 nM
19,O=C(O)c1ccc(-c2nc3ccc(O)cc3c(Cl)c2F)cc1,< 100 nM

row,Compound,IC50
1,Cc1c(-c2ccc(C(=O)O)cc2)ccc2cc(O)ccc12,100 to 1000 nM
2,O=C(O)c1ccc(-c2c(-c3cccs3)oc3cc(O)ccc3c2=O)cc1,1000 to 10000 nM
3,Cc1nc(-c2ccc(C(=O)O)cc2)nc2ccc(O)cc12,1000 to 10000 nM
4,O=C(O)c1ccc(-c2nc3ccc(O)cc3[n+]([O-])n2)cc1,< 100 nM
5,O=C(O)c1ccc(-c2cnc3cc(O)ccc3c2)cc1,1000 to 10000 nM
6,O=C(O)c1ccc(-c2ccc3c(F)c(O)ccc3c2)cc1,< 100 nM
7,N#Cc1c(-c2ccc(C(=O)O)cc2)ccc2c(F)c(O)ccc12,< 100 nM
8,O=C(O)c1ccc(-c2nc3ccc(O)cc3cc2F)cc1,< 100 nM
9,O=C(O)c1ccc(-c2c(C(F)(F)F)oc3cc(O)c(F)cc3c2=O)cc1,100 to 1000 nM
10,O=C(O)c1ccc(-c2c(C3CCCC3)oc3cc(O)ccc3c2=O)cc1,1000 to 10000 nM
11,O=C(O)c1ccc(-c2cc3ccc(O)cc3cn2)cc1,100 to 1000 nM
12,O=C(O)c1ccc(-c2cc3ccc(O)cc3[n+]([O-])c2)cc1,1000 to 10000 nM
13,O=C(O)c1ccc(-c2cc(Cl)c3cc(O)ccc3n2)cc1,< 100 nM
14,CC(C)Cc1oc2cc(O)ccc2c(=O)c1-c1ccc(C(=O)O)cc1,100 to 1000 nM
15,Cc1sc2cc(O)ccc2c(=O)c1-c1ccc(C(=O)O)cc1,< 100 nM
16,O=C(O)c1ccc(-c2nc3ccc(O)cc3nc2C(F)(F)F)cc1,< 100 nM
17,O=C(O)c1ccc(-c2ccc3c(Cl)c(O)ccc3n2)cc1,100 to 1000 nM
18,COc1cc2cc(O)ccc2cc1-c1ccc(C(=O)O)cc1,1000 to 10000 nM
19,O=C(O)c1ccc(-c2ccc3cc(O)ccc3c2Cl)cc1,< 100 nM
